Laboratory results reported in patent US5827073A, “Photoreactive peptide derivatives” (Ludwig Institute for Cancer Research, priority 1995, dated 1998).

The chains behind the UniProt entries cited, without tags or fusion partners. Where a name states a change or a piece, a line headed by the entry shows the natural chain unless it says otherwise.
UniProt P03485: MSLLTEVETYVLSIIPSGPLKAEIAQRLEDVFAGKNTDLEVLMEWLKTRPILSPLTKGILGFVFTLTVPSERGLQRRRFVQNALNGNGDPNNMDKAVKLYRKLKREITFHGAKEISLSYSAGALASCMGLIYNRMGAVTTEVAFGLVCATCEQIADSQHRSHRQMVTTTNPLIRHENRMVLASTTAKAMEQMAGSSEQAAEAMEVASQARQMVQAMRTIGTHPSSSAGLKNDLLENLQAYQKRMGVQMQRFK

System: HLA-A1
Experiment: Inhibition of HLA-A1 photoaffinity labelling on C1R/A1 cells by competitor peptides
Type: binding, human
Details: labelling with SEQ ID NO: 1 on C1R/A1 cells; 300 fold molar excess of competitor

## influenza matrix peptide 57-66: HLA-A2 restricted influenza matrix peptide 57-66 (KGILGFVFTL; Matrix protein 1; UniProt P03485 57-66, looked up, fragment) [reference compound]
  inhibition of HLA-A1 photoaffinity labelling: no detectable inhibition
